# Laboratory results as given in patent US7456293B2, “Substituted carboxylic acid derivatives for the treatment of diabetes and lipid disorders, their preparation and use” (SK Holding Co., Ltd, priority 2005, dated 2008).
# System: 3T3-L1 adipocytes
# Assay: Insulin-stimulated glucose uptake (2-deoxy-D-glucose) in differentiated 3T3-L1 adipocytes
# Assay type: cell-based
# Settings: separate treatment: 1 μM compound alone or 100 nM insulin alone, 48 h
# Description: Adipocyte differentiation was then induced using standard protocol. […] The maintenance medium was changed every 3 days until the cells were utilized for experimentation. Glucose transport activity was measured in the presence or absence of insulin and the protocol was modified from Kletzien, R F et al. (1992) Molecular Pharmacology 41:393-398. Briefly, differentiated 3T3-L1 adipocytes were incubated with control (DMSO), insulin (100 nM) alone, the compound of Example 1 (1 μM) alone and a combination of insulin (100 nM)+the compound of Example 1 (1 μM) for 48 h. In each instance, the medium was changed twice a day. […] […] In order to determine whether there is an enantio-dependency of compound of example 1, we investigated the effect of each enantiomer and racemate on insulin-stimulated glucose uptake as described above.
substance,measurement,value
insulin,glucose transport,increase in glucose transport
